Measured values published in patent US9120808B2 (NABRIVA THERAPEUTICS AG, priority 2009, dated 2015).

Sequences of proteins named here, by UniProt entry; tags and fusion partners are left off. A change or cut given only in a name is not applied to a line headed by its entry.
UniProt P0AD64: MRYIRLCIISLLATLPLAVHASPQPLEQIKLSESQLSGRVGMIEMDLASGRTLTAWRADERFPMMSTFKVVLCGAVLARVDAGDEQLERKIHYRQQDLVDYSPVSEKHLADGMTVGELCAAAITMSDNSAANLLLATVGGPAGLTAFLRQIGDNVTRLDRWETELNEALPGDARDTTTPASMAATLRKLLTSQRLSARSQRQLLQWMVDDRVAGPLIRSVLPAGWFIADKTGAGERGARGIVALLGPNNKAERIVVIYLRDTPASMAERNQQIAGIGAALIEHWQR

Biological target: SHV-1 β-lactamase (Klebsiella pneumoniae, UniProt P0AD64)
Assay: Cell-free β-lactamase inhibition study (nitrocefin hydrolysis)
Assay type: biochemical
Settings: 10 min pre-incubation at 37° C., nitrocefin substrate
Protocol: Cell-Free-β-Lactamase Inhibition Study
Assays are performed with β-lactamases expressed in the pET system (Novagen, San Diego, Calif.) without signal peptides. They contain an N-terminal hexa-Histidine tag that is used for purification on Ni-NTA (Qiagen, Hilden, Germany). The compounds are prepared as 50 mM stocks in DMSO and diluted into buffer P1 (50 mM phosphate, pH 7) to a final concentration of 10% DMSO. All further dilutions are done in P2 (P1 with 10% DMSO). Enzyme and compound dilutions are pre-incubated for 10 min at 37° C. and the reaction is started with the addition of pre-warmed (37° C.) nitrocefin at a final concentration of […]. […] The initial velocity is determined and IC50 values are calculated using non-linear regression and sigmoidal dose response analysis with the PRISM 4.0 software (Graphpad Software Inc., San Diego, Calif.).

Question: With `COC(=O)C1C(=C(C=O)C/C=C/c2ccccc2)O[C@@H]2CC(=O)N12` (stereo partly shown) [Example 13] as the molecule, how does the IC50 read?
Answer: Its IC50 is 47.7 nM.
